# Yeast mating assay 1: variants of the scFv Ab-14

From the AlphaSeq antibody data of Engelhart et al. 2022 (doi:10.1038/s41597-022-01779-4), copy in the FLAb collection.

All variants were tested on one target, the spike HR2 peptide PDVDLGDISGINAS (SARS-CoV-2).

Parent: Ab-14, a human scFv built as VH, the linker GGGGSGGGGSGGGGS, VL. Only the CDRs of the heavy chain vary.
VH: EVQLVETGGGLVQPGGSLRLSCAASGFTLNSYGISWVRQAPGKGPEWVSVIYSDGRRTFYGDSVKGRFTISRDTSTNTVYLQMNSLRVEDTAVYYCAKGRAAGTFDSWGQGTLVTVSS
VL: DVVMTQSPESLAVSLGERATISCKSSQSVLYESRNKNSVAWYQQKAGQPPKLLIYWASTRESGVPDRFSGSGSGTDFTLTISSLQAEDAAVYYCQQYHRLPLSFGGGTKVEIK

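The parent was found by panning a naive human phage display library on the peptide. Variants in AAYL49 differ from the parent at up to three CDR positions; double and triple changes were sampled at random. The scFvs were displayed on barcoded MATa yeast, the peptide on MATalpha yeast. Pairs that bind mate more often; barcode pairs of the diploids are counted by sequencing. The ratio of observed to expected reads was calibrated, replicate by replicate, on BCL2-family standards whose Kd was known from biolayer interferometry. There are three technical replicates.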

Each variant is given by its three heavy chain CDRs, as the data file delimits them; those of the parent are GFTLNSYGIS, VIYSDGRRTFYGDSVK, GRAAGTFDS. Every variant below is changed at L29 of the VH (sequential numbering). Kd is apparent (estimated from mating counts) and averaged on the log scale over replicates with a signal. Smaller is tighter. "no signal" marks a missing value. The strain was present, yet no cells mated with the target were sequenced in any replicate, which points to weak or no binding. The list is sorted by this average, lowest first, undetected variants last. For reference, the parent read 4.4 nM as the reference entry and 13 µM (one replicate of three) as a member of this library.

* GFTYNSYGIS | VIYSDGRRTFYGDSVK | GRAAGTFDS -> 6.8 nM (3 of 3 replicates; controls 1 of 9)
* GFTANSYGIS | VIYSDGRRTFYGDSVK | ARAAGAFDS -> 520 nM (1 of 3 replicates; controls 0 of 9)
* GFTHNSYGIS | VIYSDGRRTEYGDSVK | GRAAGTFDS -> 690 nM (3 of 3 replicates; controls 0 of 9)
* DFTRNSYGIS | VIYSDGRRTFYGDSVK | GRAAGWFDS -> 1.3 µM (1 of 3 replicates; controls 1 of 9)
* GFTYNSYGIS | VIYSDGRRTPYGDSVK | GRAAGTFDS -> 2.5 µM (1 of 3 replicates; controls 1 of 9)
* GFTNNSYGIS | VIYMDGRRTFYGDKVK | GRAAGTFDS -> 7.5 µM (1 of 3 replicates; controls 2 of 9)
* GFTYNSYGIS | VNYSSGRRTFYGDSVK | GRAAGTFDS -> 8.9 µM (1 of 3 replicates; controls 1 of 9)
* GFHSNSYGIS | VIYSDGRLTFYGDSVK | GRAAGTFDS -> 12 µM (2 of 3 replicates; controls 8 of 9)
* GFTTNNYGIS | VIYSGGRRTFYGDSVK | GRAAGTFDS -> 22 µM (3 of 3 replicates; controls 3 of 9)
* GFTYNSYGIS | VIYSDGRRVFYGDSVK | HRAAGTFDS -> 23 µM (2 of 3 replicates; controls 4 of 9)
* GFTINSYGIS | VVYSDSRRTFYGDSVK | GRAAGTFDS -> 27 µM (2 of 3 replicates; controls 4 of 9)
* GFTHNSYGIS | VIMSDGRRTFYGDSVK | GRQAGTFDS -> 27 µM (3 of 3 replicates; controls 2 of 9)
* GFTVNSCGIS | VIYSDGRRTFYGDSVK | GRAAYTFDS -> 63 µM (1 of 3 replicates; controls 0 of 9)
* GFTHNSYGAS | VIYSDGRRTFYGDSVK | GRAAGTFDS -> 82 µM (1 of 3 replicates; controls 1 of 9)
* GKTKNSYGIS | VIYSDGRRTFYGDSHK | GRAAGTFDS -> 100 µM (2 of 3 replicates; controls 1 of 9)
* GFTENSYGIS | VIYSDGRRTFYGDSVK | GRAAGDFDD -> 100 µM (2 of 3 replicates; controls 3 of 9)
* GFTYNSWGIS | SIYSDGRRTFYGDSVK | GRAAGTFDS -> 120 µM (2 of 3 replicates; controls 1 of 9)
* RFTYNSYGIS | VIYSDGRRTFYGDSMK | GRAAGTFDS -> 180 µM (2 of 3 replicates; controls 4 of 9)
* GQTMNSYGIS | VILSDGRRTFYGDSVK | GRAAGTFDS -> no signal (0 of 3 replicates; controls 0 of 9)
* GFTWNSYGIS | VIYSDGRRRFYGDSVK | GRAAGTFDS -> no signal (0 of 3 replicates; controls 0 of 9)
* GFTINSYGIS | VIYSDGPRTFYGDSVK | GFAAGTFDS -> no signal (0 of 3 replicates; controls 0 of 9)
* GFTYNSYGIS | VIYSDGRRTFYGDSVK | GTAAGLFDS -> no signal (0 of 3 replicates; controls 1 of 9)
* GFTINSYGIL | VIYSDGRRTFYGDSVE | GRAAGTFDS -> no signal (0 of 3 replicates; controls 0 of 9)
* GFTMNSYGIS | SIYSEGRRTFYGDSVK | GRAAGTFDS -> no signal (0 of 3 replicates; controls 2 of 9)
* GVTWNSYGIS | VIYSDKRRTFYGDSVK | GRAAGTFDS -> no signal (0 of 3 replicates; controls 1 of 9)
* GFTPNVYGIS | VIYSDGRRTFYMDSVK | GRAAGTFDS -> no signal (0 of 3 replicates; controls 0 of 9)
* GFTVNSYGIS | VRYSDGRRTLYGDSVK | GRAAGTFDS -> no signal (0 of 3 replicates; controls 0 of 9)
* GHTQNSYGIS | VIYSDGSRTFYGDSVK | GRAAGTFDS -> no signal (0 of 3 replicates; controls 1 of 9)
* GFTSNSYGIS | VIYSDGNRTFYADSVK | GRAAGTFDS -> no signal (0 of 3 replicates; controls 0 of 9)
* GFTQNSYGIS | VIYSDHRRTFYGDCVK | GRAAGTFDS -> no signal (0 of 3 replicates; controls 1 of 9)
* GFTDNSYGIH | VIYSDGRRTFNGDSVK | GRAAGTFDS -> no signal (0 of 3 replicates; controls 1 of 9)
* GFTVNSYGIS | VIYSDGRRTFYGDSVK | GRIWGTFDS -> no signal (0 of 3 replicates; controls 3 of 9)
* GFTQNSYCIS | VDYSDGRRTFYGDSVK | GRAAGTFDS -> no signal (0 of 3 replicates; controls 1 of 9)
* GFTHNSYGIS | VIYSSGRRTFYGDMVK | GRAAGTFDS -> no signal (0 of 3 replicates; controls 0 of 9)
* GDTKNSRGIS | VIYSDGRRTFYGDSVK | GRAAGTFDS -> no signal (0 of 3 replicates; controls 0 of 9)
* GFTQNSYGIS | VIYSDGRRTFGGDSVK | GRAAGTFDS -> no signal (0 of 3 replicates; controls 0 of 9)
* GFTFNSYGIS | VKYSDGRRTFYGQSVK | GRAAGTFDS -> no signal (0 of 3 replicates; controls 0 of 9)
* GFTRNSYGIS | VIYSWGRRTFMGDSVK | GRAAGTFDS -> no signal (0 of 3 replicates; controls 3 of 9)

From the list, the first 2 with no signal in any replicate:

CDR-H1	CDR-H2	CDR-H3	Kd (apparent)	replicates with signal	empty controls
GQTMNSYGIS	VILSDGRRTFYGDSVK	GRAAGTFDS	no signal	0/3	0/9
GFTWNSYGIS	VIYSDGRRRFYGDSVK	GRAAGTFDS	no signal	0/3	0/9

Three control strains display no target. For library AAYL49, 15% of the pairings with them gave a signal, with a median of 11 µM and one signal in twenty below 680 nM, so weak values seen in few replicates may be background. For each scFv, signals with the empty controls are counted beside the result.